## Antibody variant affinities, Ab-95 light chain, assay 2

Target peptide (SARS-CoV-2 spike, HR2 region): PDVDLGDISGINAS

Ab-95 is the parent antibody, in scFv form: VH, then three GGGGS repeats, then VL. The heavy chain is unchanged in all variants.
VH: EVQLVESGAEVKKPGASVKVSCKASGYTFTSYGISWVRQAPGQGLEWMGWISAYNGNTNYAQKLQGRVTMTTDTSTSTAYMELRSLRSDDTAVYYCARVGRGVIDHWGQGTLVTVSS
VL: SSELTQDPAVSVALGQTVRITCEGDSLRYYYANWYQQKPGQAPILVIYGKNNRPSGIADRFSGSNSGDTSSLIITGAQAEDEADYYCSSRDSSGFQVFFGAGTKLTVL

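The parent was found by panning a naive human phage display library on the peptide. AAYL52 was designed without a model: most single CDR substitutions and a random sample of double and triple ones. The scFvs were displayed on barcoded MATa yeast, the peptide on MATalpha yeast. After mating in shaken culture at 30 °C for 16 h, diploids were selected and their barcode pairs sequenced. Scores were corrected for input abundance and mapped to Kd with protein pairs of known affinity run in the same pool. The assay was run in three technical replicates.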

Each variant is given by its three light chain CDRs, as the data file delimits them; those of the parent are EGDSLRYYYAN, GKNNRPS, SSRDSSGFQVF. Every variant below is changed at S55 of the VL (sequential numbering). Kd is apparent (estimated from mating counts) and averaged on the log scale over replicates with a signal. Smaller is tighter. Where no diploid with the target was found in any replicate, the entry reads "no signal": below detection, most likely a poor binder, though not proof of it.

EGDSCRYYYAN / GKNNRPF / SSRDSSGFVVF: 1.1 µM (3 of 3 replicates).
EGDSLRYYYAN / GKNNRPA / SSRDSSGPKVF: 790 nM (3 of 3 replicates).
EGDDLRYYYAN / VKNNRPC / SSRDSSGFQVF: 31 µM (2 of 3 replicates).
EGDCLRYYYAN / GKNNRPD / SSRDSSGFQQF: 8.9 µM (1 of 3 replicates).
EGDALRYYYAN / GKNNRPV / SARDSSGFQVF: 42 nM (3 of 3 replicates).
EGDSLRYYCAN / GKNNRPY / ISRDSSGFQVF: 1.0 µM (3 of 3 replicates).
EGDSWRYYYAN / GKNNREG / SSRDSSGFQVF: 670 nM (3 of 3 replicates).
EGDSLRYEHAN / GKNNRPK / SSRDSSGFQVF: 63 nM (3 of 3 replicates).
EGDSLRYYYAN / GKNNRPQ / SSRDSSGFQVF: 58 nM (3 of 3 replicates).
EGMSLRYYYAN / GKNNRPA / SSRESSGFQVF: 4.6 µM (3 of 3 replicates).
EGDSLRCYPAN / GKNNRPR / SSRDSSGFQVF: 1.6 µM (2 of 3 replicates).
ERDSLRYYYAN / GENNRPD / SSRDSSGFQVF: 180 nM (3 of 3 replicates).
EGDSLRYYYAN / GKNNRPC / SSRDESEFQVF: no signal (0 of 3 replicates).
EGDSLRYYTAN / GKNNRPK / SSRDSSGFQVW: 1.0 µM (3 of 3 replicates).
EGRSLRYYYAN / GKNNRHL / SSRDSSGFQVF: 2.3 µM (2 of 3 replicates).
EGDSLRYYDAM / GKNNRPC / SSRDSSGFQVF: 59 nM (3 of 3 replicates).
EGDSLRYYYAN / GMNNRPC / SSRDSSGFQMF: no signal (0 of 3 replicates).
EGDSLRYYYAN / GKNNRPR / SSRLSSGFQVF: 19 µM (1 of 3 replicates).
EGDSLPYYYAN / GKNNRPG / SSRDSKGFQVF: 770 nM (3 of 3 replicates).
EGDSLRYYYAN / GKNNRPY / SSRDESGFQWF: 590 nM (2 of 3 replicates).
EGDSLRYYYAN / GKNNRPM / SSRDSSHVQVF: 5.9 µM (2 of 3 replicates).
EGDSLRYYYAN / GKNNRPL / SSRDSTGFQAF: 840 nM (3 of 3 replicates).
EGDSLMYYYAN / GKNNRPM / SSRDSSGFQVF: 180 nM (3 of 3 replicates).
EGDSLRYYYAN / GKNNRPM / SSRDSSEFGVF: 4.0 µM (2 of 3 replicates).
EGDSLRYYYAN / GKNNRFF / ESRDSSGFQVF: no signal (0 of 3 replicates).
EGDSLRYMYAN / GKNNRPP / SSRDSSGFQVA: 220 nM (3 of 3 replicates).
ELDSLRYYYAN / GKNNRPD / SSRDSSGPQVF: no signal (0 of 3 replicates).
EGDNLRYYYAN / GKNNRPR / SSRDSVGFQVF: 94 µM (2 of 3 replicates).
EGDSLRYYYAN / GKNNRMQ / SSRDSSIFQVF: 3.2 µM (1 of 3 replicates).
YGDSLRYYQAN / GKNNRPL / SSRDSSGFQVF: 50 nM (3 of 3 replicates).
EGDELRYYYAN / GKNNRPL / SSRHSSGFQVF: 110 µM (1 of 3 replicates).
EGDCLRYYYAN / GKNTRPK / SSRDSSGFQVF: no signal (0 of 3 replicates).
EGDSLRYNYAN / GKNNRPA / SSRKSSGFQVF: 3.9 nM (3 of 3 replicates).

4 of these entries, quoted again:

CDR-L1,CDR-L2,CDR-L3,apparent Kd,detected
EGDCLRYYYAN,GKNNRPD,SSRDSSGFQQF,8.9 µM,1 of 3
EGDSLRYYYAN,GKNNRPQ,SSRDSSGFQVF,58 nM,3 of 3
EGRSLRYYYAN,GKNNRHL,SSRDSSGFQVF,2.3 µM,2 of 3
ERDSLRYYYAN,GENNRPD,SSRDSSGFQVF,180 nM,3 of 3

In this assay the parent's reference entry averaged 200 nM; its copy inside this library read 180 nM. As a blank, each scFv also met three strains without target: over library AAYL52, 28% of these pairings were detected, typically at 8.2 µM and seldom below 800 nM.

Data: MIT Lincoln Laboratory AlphaSeq set, Engelhart et al. 2022, doi:10.1038/s41597-022-01779-4, as distributed in FLAb.